Assay results: ChEMBL document CHEMBL1148695, “Synthesis and biological activity of nociceptin/orphanin FQ analogues substituted in position 7 or 11 with Calpha,alpha-dialkylated amino acids” (Bioorg Med Chem, 2007)

The chains behind the UniProt entries cited, without tags or fusion partners. Where a name states a change or a piece, a line headed by the entry shows the natural chain unless it says otherwise.
UniProt P35377: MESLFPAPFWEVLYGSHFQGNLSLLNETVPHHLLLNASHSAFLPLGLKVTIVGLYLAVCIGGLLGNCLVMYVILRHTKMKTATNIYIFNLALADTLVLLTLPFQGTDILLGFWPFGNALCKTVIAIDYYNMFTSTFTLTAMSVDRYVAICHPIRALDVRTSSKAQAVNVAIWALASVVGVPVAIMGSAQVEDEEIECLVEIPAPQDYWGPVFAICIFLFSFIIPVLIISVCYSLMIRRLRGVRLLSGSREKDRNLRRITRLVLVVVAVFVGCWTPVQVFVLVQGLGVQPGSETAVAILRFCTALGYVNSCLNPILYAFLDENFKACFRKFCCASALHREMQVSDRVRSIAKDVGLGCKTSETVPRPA

Target: Nociceptin receptor (Mus musculus) (UniProt P35377)
Experiment: Agonist activity at NOP receptor in Swiss mouse vas deferens assessed as effect on electrically stimulated contractions
Type: functional, tissue-based

## CC(C)C[C@H](NC(=O)[C@H](CCCCN)NC(=O)[C@H](CCCNC(=N)N)NC(=O)[C@H](C)NC(=O)[C@H](CO)NC(=O)[C@H](CCCCN)NC(=O)[C@H](CCCNC(=N)N)NC(=O)[C@H](C)NC(=O)CNC(=O)[C@@H](NC(=O)[C@H](Cc1ccccc1)NC(=O)CNC(=O)CNC(=O)[C@@H](N)Cc1ccccc1)[C@@H](C)O)C(=O)N[C@@H](C)C(=O)N[C@@H](CC(N)=O)C(=O)N[C@@H](CCC(N)=O)C(N)=O
  Emax: 93%
